Laboratory results from ChEMBL document CHEMBL1955812, “New chemotypes acting as isozyme-selective carbonic anhydrase inhibitors with low affinity for the offtarget cytosolic isoform II” (Bioorg Med Chem Lett, 2012).

Legend:
Carbonic anhydrase 12 = Carbonic anhydrase 12 (Homo sapiens, UniProt O43570); experiment: Inhibition of human recombinant carbonic anhydrase 12 preincubated for 15 mins to 72 hrs measured after 6 hrs by stopped flow CO2 hydration method
Carbonic anhydrase 9 = Carbonic anhydrase 9 (Homo sapiens, UniProt Q16790); experiment: Inhibition of human recombinant carbonic anhydrase 9 preincubated for 15 mins to 72 hrs measured after 6 hrs by stopped flow CO2 hydration method
[1] = molecular target: Carbonic anhydrase 5A, mitochondrial (Homo sapiens, UniProt P35218); experiment: Inhibition of human recombinant carbonic anhydrase 5A preincubated for 15 mins to 72 hrs measured after 6 hrs by stopped flow CO2 hydration method

Measured: Ki

O=c1ccc2ccccc2o1 [COUMARIN]
> 200 µM: Carbonic anhydrase 12 | Carbonic anhydrase 9 | [1]
